Literature values, collected in patent US8853185B2, “Coferons and methods of making and using them” (Cornell University, priority 2008, dated 2014).

Target: T1, SMAC/DIABLO (Homo sapiens, UniProt Q9NR28)
T1 sequence (Q9NR28 22-239): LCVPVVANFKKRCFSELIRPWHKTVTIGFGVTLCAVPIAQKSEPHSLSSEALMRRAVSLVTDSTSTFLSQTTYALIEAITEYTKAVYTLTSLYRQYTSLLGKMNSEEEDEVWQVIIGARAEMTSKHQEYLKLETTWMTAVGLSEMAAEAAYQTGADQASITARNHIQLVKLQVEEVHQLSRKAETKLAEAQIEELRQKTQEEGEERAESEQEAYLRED
Conditions: read-out: DISSOCIATION CONSTANT (Kd); cited from earlier work

Substance: XIAP: binding partner of SMAC/DIABLO
- Kd: 800 nM
